Columns and labels:
MDA-MB-231 = experiment: Antiproliferative activity against human MDA-MB-231 cells assessed as reduction in cell viability incubated for 72 hrs by CyQuant assay; format: functional, cell-based; details: MDA-MB-231, 72 h
[1] = target: Signal transducer and activator of transcription 3 (Homo sapiens) (UniProt P40763); experiment: Binding affinity to STAT3 (unknown origin) assessed as change in enthalpy by isothermal titration calorimetry
[2] = target: Signal transducer and activator of transcription 3 (Mus musculus, UniProt P42227); experiment: Inhibition of oligonucleotide [32P]-labelled 5'-AGCITCATTTCCCGTAAATCCCTA probe binding to STAT3 SH2 domain in mouse NIH3T3/v-Src nuclear extract preincubated for 30 mins followed by hSIE probe addition by EMSA analysis; format: subcellular, Nucleus

Amino acid sequences for entries named in this document (tags omitted).
UniProt P40763, whole entry: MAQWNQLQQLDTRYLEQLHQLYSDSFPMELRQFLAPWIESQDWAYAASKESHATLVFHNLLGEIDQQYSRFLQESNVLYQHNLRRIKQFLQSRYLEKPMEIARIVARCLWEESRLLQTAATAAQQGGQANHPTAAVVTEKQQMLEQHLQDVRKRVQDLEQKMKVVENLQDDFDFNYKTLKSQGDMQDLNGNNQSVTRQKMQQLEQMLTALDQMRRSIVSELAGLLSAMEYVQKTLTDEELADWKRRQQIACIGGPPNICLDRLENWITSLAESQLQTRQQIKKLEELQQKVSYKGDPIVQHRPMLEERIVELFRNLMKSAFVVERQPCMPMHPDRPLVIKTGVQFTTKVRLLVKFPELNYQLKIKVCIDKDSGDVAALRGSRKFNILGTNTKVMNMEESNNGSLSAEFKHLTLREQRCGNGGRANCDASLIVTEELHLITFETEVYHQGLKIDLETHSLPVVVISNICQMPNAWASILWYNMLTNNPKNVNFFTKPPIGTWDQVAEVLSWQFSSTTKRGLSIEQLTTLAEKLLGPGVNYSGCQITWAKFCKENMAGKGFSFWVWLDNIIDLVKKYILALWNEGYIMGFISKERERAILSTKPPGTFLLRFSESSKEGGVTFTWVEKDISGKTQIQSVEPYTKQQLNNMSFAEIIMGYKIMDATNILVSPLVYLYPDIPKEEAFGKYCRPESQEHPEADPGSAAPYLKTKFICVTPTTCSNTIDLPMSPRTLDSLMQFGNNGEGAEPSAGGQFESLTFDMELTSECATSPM
UniProt P42227, whole entry: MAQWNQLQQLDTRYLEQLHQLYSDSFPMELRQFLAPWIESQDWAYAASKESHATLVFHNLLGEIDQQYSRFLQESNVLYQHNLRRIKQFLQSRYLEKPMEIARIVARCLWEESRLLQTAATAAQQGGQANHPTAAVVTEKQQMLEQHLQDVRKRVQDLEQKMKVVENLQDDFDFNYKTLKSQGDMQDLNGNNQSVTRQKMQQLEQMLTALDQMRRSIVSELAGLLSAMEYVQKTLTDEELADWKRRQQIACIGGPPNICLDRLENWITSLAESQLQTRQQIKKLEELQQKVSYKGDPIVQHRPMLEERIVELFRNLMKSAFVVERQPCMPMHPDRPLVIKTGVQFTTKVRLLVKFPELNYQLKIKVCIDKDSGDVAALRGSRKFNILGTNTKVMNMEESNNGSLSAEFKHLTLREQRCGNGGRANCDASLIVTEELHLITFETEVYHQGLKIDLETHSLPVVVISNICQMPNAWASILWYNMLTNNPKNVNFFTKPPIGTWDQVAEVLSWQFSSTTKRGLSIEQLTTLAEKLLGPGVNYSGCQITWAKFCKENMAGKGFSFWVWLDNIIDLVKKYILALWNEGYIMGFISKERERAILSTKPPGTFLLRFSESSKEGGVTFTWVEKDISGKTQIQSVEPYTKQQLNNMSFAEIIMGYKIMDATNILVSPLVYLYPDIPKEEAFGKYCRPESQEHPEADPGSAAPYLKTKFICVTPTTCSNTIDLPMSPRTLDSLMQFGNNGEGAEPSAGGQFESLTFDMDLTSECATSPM

Row | EC50 (MDA-MB-231) | deltaH [1] | Compound | IC50 [2]
1 | 900 nM | -22.7 kJ/mol | O=C1OCc2cc(N(Cc3ccc(C4CCCCC4)cn3)C(=O)[C@H]3CCN3S(=O)(=O)c3c(F)c(F)c(F)c(F)c3F)ccc21 | –
2 | – | – | O=C(O)c1ccc(N(Cc2cnc(C3CCCCC3)cn2)C(=O)[C@H]2CCN2S(=O)(=O)c2c(F)c(F)c(F)c(F)c2F)c(F)c1 | 1720 nM

Source: ChEMBL document CHEMBL4706639, “Discovery of Novel Azetidine Amides as Potent Small-Molecule STAT3 Inhibitors” (J Med Chem, 2021)
